Measurements taken from ChEMBL document CHEMBL5380860, “Design, Synthesis, and Antitumor Activity of Potent and Selective EGFR L858R/T790M Inhibitors and Identification of a Combination Therapy to Overcome Acquired Resistance in Models of Non-small-cell Lung Cancer” (J Med Chem, 2023).

Test: Selectivity ratio of IC50 for inhibition of human wild type partial length EGFR (R669 to V1011 residues) expressed in bacterial expression system to IC50 for human partial length EGFR (R669 to V1011 residues) L858R/T790M mutant expressed in mammalian expression system

C=CC(=O)Nc1cccc(Nc2nc(Nc3ccc(N4CCN(C)CC4)cc3)nc3ccc(F)cc23)c1
Ratio IC50: 368
